The text below walks through data of patent publication US7842488B2, “Polynucleotides encoding a human 3-phosphoinositide- dependent protein kinase” (Medical Research Council, priority 1997, dated 2010).

Assay [1] has as its system PDK1. In words: Phosphorylation of GST-PKBα by PDK1 with [γ32P]ATP. Type of assay: biochemical, rabbit. Particulars: PtdCho and PtdSer at 100 μM or in 10-fold excess; 30 min; read-out: concentration required for half maximal phosphorylation of GST-PKBα by PDK1. As for the experimental part:
Phospholipid vesicles comprising 1 mM PtdCho, 1 mM PtdSer and 0.1 mM PtdIns lipids were prepared, dried to a film under vacuum and resuspended with vortexing into 10 mM Hepes, pH 7.3. The cloudy solution of multilamellar and large unilamellar vesicles was bath-sonicated for 20 min, after which a clearer suspension of smaller unilamellar vesicles was obtained. Solutions were stored at 4° C. at concentrations 10-fold higher than those required in the assay and used within 2-4 days.
Phosphorylation of GST-PKB ? by PDK1. The incubations were identical to the Stage 1 described above except that [γ^32P] ATP (200-400 cpm/pmol) was used instead of unlabelled ATP. The reactions were terminated by making the solution 1% (by mass) in SDS. The samples were run on a 7.5% SDS-polyacrylamide gel and, after staining with Coomassie blue, the gels were autoradiographed. The Coomassie blue-staining bands corresponding to GST-PKBα were excised and the ^32P-radioactivity associated with each band was quantified.

The target of assay [2] is T1, GST-PDK1 (Homo sapiens, UniProt O15530).
T1 construct: Residues 52-556 of PDK1 were expressed in human embryonic kidney 293 cells; made in house; host or cells: human embryonic kidney 293 cells (pEBG2T)
T1 sequence (O15530 52-556): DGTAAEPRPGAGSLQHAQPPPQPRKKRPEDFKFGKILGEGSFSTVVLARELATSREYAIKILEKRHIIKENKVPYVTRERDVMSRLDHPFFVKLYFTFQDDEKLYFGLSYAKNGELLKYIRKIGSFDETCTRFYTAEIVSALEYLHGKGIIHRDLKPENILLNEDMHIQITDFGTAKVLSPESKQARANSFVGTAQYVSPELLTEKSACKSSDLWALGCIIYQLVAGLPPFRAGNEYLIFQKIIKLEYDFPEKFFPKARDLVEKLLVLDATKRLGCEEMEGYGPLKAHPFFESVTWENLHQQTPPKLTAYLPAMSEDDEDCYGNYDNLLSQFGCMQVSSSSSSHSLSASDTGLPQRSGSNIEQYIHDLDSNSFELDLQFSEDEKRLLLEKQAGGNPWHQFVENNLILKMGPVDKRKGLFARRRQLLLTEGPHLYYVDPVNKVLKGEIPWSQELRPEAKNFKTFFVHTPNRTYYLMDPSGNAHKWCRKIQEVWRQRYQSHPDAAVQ
In words: GST-PDK1 assay: activation and phosphorylation of GST-PKBα. Particulars: versus absence of PtdIns(3,4,5)P3 or PtdIns(3,4)P2. Type of assay: biochemical. As for the experimental part:
FIG. 12. […] In panels A and C, the assays were terminated by making the incubations 1% (by vol) in TRITON X-100™ (see Ref 21), and the increase in specific activity of GST-PKBα was determined. In panels B and D, the reactions were terminated by making the solutions 1% in SDS, the samples were subjected to SDS/polyacrylamide gel electrophoresis, and the phosphorylation was assessed by autoradiography of the Coomassie blue-stained band corresponding to GST-PKBα.
One unit of PDK1 activity was defined as that amount required to increase the basal activity of GST-PKBα by 1 unit of activity in one min.

Assay [3] deals with PDK1. In words: PDK1 assay: activation of GST-PKBα by purified PDK1 with phospholipid vesicles. Type of assay: biochemical, rabbit. As to the method: Phospholipid vesicles comprising 1 mM PtdCho, 1 mM PtdSer and 0.1 mM PtdIns lipids were prepared, dried to a film under vacuum and resuspended with vortexing into 10 mM Hepes, pH 7.3. The cloudy solution of multilamellar and large unilamellar vesicles was bath-sonicated for 20 min, after which a clearer suspension of smaller unilamellar vesicles was obtained. […].
Assay of PDK1. The assay was carried out in two stages; in the first, GST-PKBα was incubated with PDK1 in the presence of MgATP and phospholipid vesicles to permit activation of GST-PKBα.
. After 10 min at 30° C., the reactions were terminated by spotting the reaction mixture on to p81 phosphocellulose paper. The papers were washed in phosphoric acid and analysed as described previously. A control reaction in which GST-PKBα was omitted was taken as the blank and was always less than 5% of the activity measured in the presence of GST-PKBα. The basal GST-PKBα activity is the activity measured in the absence of PDK1. […]

Take “Phosphatidylinositol 3,4,5-tris phosphate [PtdIns(3,4,5)P3]”: the EC50 is 1 to 2 µM in assay [1]; 1 to 2 µM in assay [3] (PtdCho and PtdSer at 100 μM or in 10-fold excess, 30 min, read-out: concentration required for half maximal activation of GST-PKBα by PDK1). Further, the “fold enhancement of PDK1 activity in the presence of the inositol phospholipid” value in assay [2] is on record as “about 1000 fold”. Also, the “fold less effective in activating PDK1 in the absence of PtdCho/PtdSer vesicles” value in assay [3] (60 min assay, FIG. 3B) is reported as “at least 15 fold”. For the same substance, the “concentration with optimal effect on activation or phosphorylation of GST-PKBα by PDK1” value in assay [3] (PtdCho and PtdSer at 100 μM or in 10-fold excess) came to 10 µM.
